The source of these data is ChEMBL document CHEMBL4265938, “Donepezil-based multi-functional cholinesterase inhibitors for treatment of Alzheimer's disease” (Eur J Med Chem, 2018).

A short description of the experiment: Antioxidant activity assessed as trolox equivalent of AAPH-induced radical scavenging activity at 70 nM preincubated for 15 mins followed by AAPH addition measured every min for 80 mins by ORAC-FL assay. Type of experiment: functional.

Take `COc1cc(/C=C/C(=O)O)ccc1O`: the Activity turned out to be 3.74 equiv.
